Values of other authors in paper PMC8868332, “Creating Robust Antimicrobial Materials with Sticky Tyrocidines” (Antibiotics, 2022).

Details: general character summarised in Table 2; no reference given; cited from earlier work
Excerpt: Table 2 Summary of the compounds used to compare with the Trc in creating robust non-covalent antimicrobial materials. | column: Character
For gramicidin S [GS], the “Haemolytic character (Character)” value is listed as “haemolytic” and the “Solubility (Character)” value is listed as “water-soluble”.
In the case of Magainin 2, the “Haemolytic character (Character)” value is listed as “non-haemolytic” and the “Solubility (Character)” value is listed as “water-soluble”.
For PGLa, the “Haemolytic character (Character)” value is given as “haemolytic” and the “Solubility (Character)” value is given as “water-soluble”.
